{"source": "patent US20110262508A1", "about": "“ANTIMICROBIAL COMPOSITIONS, FORMULATIONS AND USES THEREOF” (priority 2007, published 2011)", "tested_on": "Jurkat cells", "experiment": "Cytotoxicity against Jurkat cells (CellTiter Blue)", "format": "cell-based, human", "experimental": "The cytotoxicities of selected peptides against human T-lymphocytes, in particular Jurkat cells, was determined by growing 100 uL Jurkat cells in RPMI (approx. 5×10^5 cells/ml density) overnight at 37° C. under 5% CO2 atmosphere, in microtiter plate wells, in the presence and absence of peptides. Control reactions either lacked peptide (negative cytotoxicity control), or contained a buffer to completely lyse Jurkat cells (positive cytotoxicity control). The viabilities of cells were then determined by addition of 20 uL CellTiter Blue dye (Promega) to each well, and incubation of cells for a further 3 hrs at 37° C. Fluorescence values were measured for 1 sec at 540 nm/615 nm, and expressed relative to fluorescence values for negative and positive cytotoxicity control samples. Comparison with a fully lysed control allowed the calculation of a percentage killing for each peptide concentration. The MCC10 value was calculated as the minimum peptide concentration required to induce 10% cytotoxicity."}
{"substance": "tachyplesin-1 [reference compound]", "values": [{"measurement": "Percent Jurkat cells killed at 20 μM", "result": 10, "unit": "%"}]}
